Drawing on patent US12544374B2, “AZA-quinoline compounds and uses thereof” (Novartis AG, priority 2019, dated 2026), this text covers IC50 for 8 compounds.

Sequences of proteins named here, by UniProt entry; tags and fusion partners are left off.
UniProt Q15910, whole entry: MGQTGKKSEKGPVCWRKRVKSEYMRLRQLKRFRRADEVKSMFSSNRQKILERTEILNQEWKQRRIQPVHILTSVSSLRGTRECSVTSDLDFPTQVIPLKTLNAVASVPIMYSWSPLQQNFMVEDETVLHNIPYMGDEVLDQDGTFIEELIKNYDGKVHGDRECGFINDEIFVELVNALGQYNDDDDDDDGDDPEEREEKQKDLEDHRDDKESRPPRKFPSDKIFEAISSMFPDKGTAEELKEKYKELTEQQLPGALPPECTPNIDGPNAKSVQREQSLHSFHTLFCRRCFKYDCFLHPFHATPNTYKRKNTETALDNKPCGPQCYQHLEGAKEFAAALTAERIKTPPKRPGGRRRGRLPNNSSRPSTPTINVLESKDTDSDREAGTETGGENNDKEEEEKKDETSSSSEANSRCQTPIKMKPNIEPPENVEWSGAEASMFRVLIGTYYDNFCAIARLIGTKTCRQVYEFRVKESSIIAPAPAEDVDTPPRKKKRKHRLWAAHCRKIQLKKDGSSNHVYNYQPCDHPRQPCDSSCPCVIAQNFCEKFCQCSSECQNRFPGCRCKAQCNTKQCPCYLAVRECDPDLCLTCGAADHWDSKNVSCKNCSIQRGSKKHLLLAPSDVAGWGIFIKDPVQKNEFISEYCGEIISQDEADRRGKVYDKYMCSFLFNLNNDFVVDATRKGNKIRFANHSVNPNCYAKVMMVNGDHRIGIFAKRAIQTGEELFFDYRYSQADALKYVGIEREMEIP
UniProt O75530, whole entry partner: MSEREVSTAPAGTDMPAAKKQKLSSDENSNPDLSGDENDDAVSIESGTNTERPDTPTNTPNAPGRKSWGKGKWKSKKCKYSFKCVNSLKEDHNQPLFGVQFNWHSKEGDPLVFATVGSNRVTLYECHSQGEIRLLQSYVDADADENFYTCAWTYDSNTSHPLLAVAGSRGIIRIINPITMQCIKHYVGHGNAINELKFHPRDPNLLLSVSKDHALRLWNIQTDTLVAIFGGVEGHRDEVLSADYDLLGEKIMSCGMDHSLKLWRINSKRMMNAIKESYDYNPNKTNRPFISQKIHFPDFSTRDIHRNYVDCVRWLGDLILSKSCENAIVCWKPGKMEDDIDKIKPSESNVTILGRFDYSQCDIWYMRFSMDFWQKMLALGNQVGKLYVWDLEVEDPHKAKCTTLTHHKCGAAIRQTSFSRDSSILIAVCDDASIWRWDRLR
UniProt Q15022, whole entry partner: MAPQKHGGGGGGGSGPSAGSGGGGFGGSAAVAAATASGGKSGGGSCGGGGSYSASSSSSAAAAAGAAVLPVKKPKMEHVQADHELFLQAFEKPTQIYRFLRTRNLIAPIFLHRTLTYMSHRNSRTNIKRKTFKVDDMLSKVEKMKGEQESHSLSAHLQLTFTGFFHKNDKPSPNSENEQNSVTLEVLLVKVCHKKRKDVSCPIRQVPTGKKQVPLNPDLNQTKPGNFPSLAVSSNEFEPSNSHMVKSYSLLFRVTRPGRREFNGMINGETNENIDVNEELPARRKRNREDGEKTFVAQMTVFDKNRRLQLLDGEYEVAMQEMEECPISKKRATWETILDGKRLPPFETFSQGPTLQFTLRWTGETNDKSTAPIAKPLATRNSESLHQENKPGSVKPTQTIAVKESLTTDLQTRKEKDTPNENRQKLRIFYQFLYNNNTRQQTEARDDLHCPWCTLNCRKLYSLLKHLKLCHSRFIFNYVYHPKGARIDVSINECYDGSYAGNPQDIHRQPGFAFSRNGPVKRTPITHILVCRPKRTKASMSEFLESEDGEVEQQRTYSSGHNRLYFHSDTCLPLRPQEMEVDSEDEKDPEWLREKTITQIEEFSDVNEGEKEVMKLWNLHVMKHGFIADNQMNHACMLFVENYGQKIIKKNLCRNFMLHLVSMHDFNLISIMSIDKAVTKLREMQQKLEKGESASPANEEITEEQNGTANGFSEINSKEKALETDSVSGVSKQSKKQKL
UniProt Q09028, whole entry partner: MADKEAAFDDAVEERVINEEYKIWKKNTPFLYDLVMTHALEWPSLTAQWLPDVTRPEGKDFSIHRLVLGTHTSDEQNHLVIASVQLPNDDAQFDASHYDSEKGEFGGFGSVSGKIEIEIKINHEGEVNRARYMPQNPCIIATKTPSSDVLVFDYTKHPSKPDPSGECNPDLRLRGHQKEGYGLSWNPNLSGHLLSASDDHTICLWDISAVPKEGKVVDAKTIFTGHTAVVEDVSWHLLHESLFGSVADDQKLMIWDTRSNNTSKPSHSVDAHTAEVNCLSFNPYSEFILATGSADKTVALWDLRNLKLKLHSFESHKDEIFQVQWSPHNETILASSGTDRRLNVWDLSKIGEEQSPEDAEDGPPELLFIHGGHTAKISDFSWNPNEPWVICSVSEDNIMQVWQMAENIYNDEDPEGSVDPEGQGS
UniProt Q6ZN18, whole entry partner: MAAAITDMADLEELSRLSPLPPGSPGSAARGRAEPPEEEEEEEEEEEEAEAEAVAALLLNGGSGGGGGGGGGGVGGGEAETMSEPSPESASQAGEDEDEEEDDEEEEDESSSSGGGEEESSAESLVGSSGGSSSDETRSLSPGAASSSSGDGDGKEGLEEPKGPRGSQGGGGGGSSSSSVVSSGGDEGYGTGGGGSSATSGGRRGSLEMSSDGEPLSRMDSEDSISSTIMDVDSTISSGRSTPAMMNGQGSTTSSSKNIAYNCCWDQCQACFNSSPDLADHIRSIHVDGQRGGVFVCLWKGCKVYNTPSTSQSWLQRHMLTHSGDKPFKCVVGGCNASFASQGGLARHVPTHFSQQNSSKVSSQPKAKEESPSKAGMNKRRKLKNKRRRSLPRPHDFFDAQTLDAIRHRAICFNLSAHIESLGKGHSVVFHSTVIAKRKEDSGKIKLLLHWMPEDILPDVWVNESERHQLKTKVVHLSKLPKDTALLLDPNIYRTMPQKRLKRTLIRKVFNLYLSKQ

Experiment [1] concerns the target wild type PRC2 (wtPRC2) complex (Homo sapiens (Human), UniProt Q15910). Kind of experiment: EZH2 LC-MS assay (LC-Qualified). In kind it is biochemical. The following applies: read-out: EZH2 IC50 (μM) (a).
Experiment [2] deals with EZH2 (Homo sapiens (Human), UniProt Q15910). The experiment can be described thus: ELISA (H3K27 methylation) assay in G401 cell. The format is cell-based. The following applies: read-out: EZH2 IC50 (μM) (b), (b) ELISA Qualified assay, 48 h.

By IC50 is commonly meant the concentration needed to halve the response being measured. As to `CC(C(=O)N(C)C1COC1)c1cnc(NC[C@H]2CC[C@H](Nc3ccc4ccnc(Cl)c4n3)CC2)nc1` (single isomer, unassigned) [C56 or C57 (Peak 1)], the IC50 in experiment [1] is 0.223 µM; in experiment [2], 0.046 µM.
Taken in the same sequence, the figures for `CC(C(=O)N(C)C1COC1)c1cnc(NC[C@H]2CC[C@H](Nc3ccc4ccnc(Cl)c4n3)CC2)nc1` (single isomer, unassigned) [C56 or C57 (Peak 2)] were 0.015 µM and 0.003 µM.
For `CC(C(=O)N1CC(O)C1)c1cnc(NC[C@H]2CC[C@H](Nc3ccc4ccnc(Cl)c4n3)CC2)nc1` (single isomer, unassigned) [C70 or C71 (Peak 1)] the same measures were 0.217 µM and 0.846 µM.
With `CC(C(=O)N1CC(O)C1)c1cnc(NC[C@H]2CC[C@H](Nc3ccc4ccnc(Cl)c4n3)CC2)nc1` (single isomer, unassigned) [C70 or C71 (Peak 2)], the figures for the IC50 in experiment [1] and in experiment [2] were 0.028 µM and 0.019 µM, respectively.
Turning to `O=C(NC1COC1)C(CO)c1cnc(NC[C@H]2CC[C@H](Nc3ccc4ccnc(Cl)c4n3)CC2)nc1` (single isomer, unassigned) [C73 or C74 (Peak 1)], the 50% inhibitory concentration (IC50) was 0.071 µM in experiment [1] and 0.229 µM in experiment [2].
Take `O=C(NC1COC1)C(CO)c1cnc(NC[C@H]2CC[C@H](Nc3ccc4ccnc(Cl)c4n3)CC2)nc1` (single isomer, unassigned) [C73 or C74 (Peak 2)]: the IC50 in experiment [1] came to 0.01 µM; in experiment [2] it was 0.018 µM.
For `O=C(NC1COC1)C(O)c1cnc(NC[C@H]2CC[C@H](Nc3ccc4ccnc(Cl)c4n3)CC2)nc1` (single isomer, unassigned) [C75 or C76 (Peak 1)], the values for the half-inhibitory concentration (IC50) in experiment [1] and in experiment [2] were 0.28 µM and 0.557 µM, respectively.
As to `O=C(NC1COC1)C(O)c1cnc(NC[C@H]2CC[C@H](Nc3ccc4ccnc(Cl)c4n3)CC2)nc1` (single isomer, unassigned) [C75 or C76 (Peak 2)], the values for the half-maximal inhibitory concentration (IC50) in experiment [1] and in experiment [2] were 0.021 µM and 0.005 µM, respectively.
